Patent EP2892896B1 (Bristol-Myers Squibb Company, priority 2012, dated 2014)

Chains of the proteins cited; added tags and fusions are not shown.
UniProt Q99705, whole entry E4Q/A5T: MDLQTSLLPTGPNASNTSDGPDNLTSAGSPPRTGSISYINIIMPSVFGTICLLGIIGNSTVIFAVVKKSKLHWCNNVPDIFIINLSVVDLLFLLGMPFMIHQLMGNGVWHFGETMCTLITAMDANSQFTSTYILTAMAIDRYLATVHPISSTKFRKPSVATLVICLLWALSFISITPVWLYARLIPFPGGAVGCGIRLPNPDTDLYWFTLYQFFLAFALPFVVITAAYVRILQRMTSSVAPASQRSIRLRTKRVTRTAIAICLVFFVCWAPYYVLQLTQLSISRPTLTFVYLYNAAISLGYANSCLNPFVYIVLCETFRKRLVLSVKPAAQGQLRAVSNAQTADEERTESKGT

Target: T1, human melanin concentrating hormone receptor (MCHR1) (Homo sapiens, UniProt Q99705, A5T/E4Q)
T1 construct: expressed in transfected cells; host or cells: HEK-293 (stably transfected), membranes
Experiment: Radioligand binding assay for assessment of MCHR1 activity
Settings: membranes from HEK-293 cells expressing a mutated (E4Q, A5T) hMCHR1 receptor; competition with 0.06 - 0.1 nM [Phe13, [125I]Tyr19]-MCH; 90 min
Description: Radioligand Binding Assay for Assessment of MCHR1 Activity
An in vitro binding assay was used to determine the compound Ki value or ability to antagonize binding of a peptide agonist to the human melanin concentrating hormone receptor (MCHR1). Membranes from stably transfected HEK-293 cells expressing a mutated (E4Q, A5T) hMCHR1 receptor were prepared by dounce homogenization and differential centrifugation. Binding experiments were carried out with 0.5-1.0 µg of membrane protein incubated in a total of 0.2 mL in 25 mM HEPES (pH 7.4) with 10 mM MgCl2, 2 mM EGTA, and 0.1% BSA (Binding Buffer) for 90 min. For competition binding assays, reactions were carried out in the presence of with 0.06 - 0.1 nM [Phe^13, [^125I]Tyr^19]-MCH and increasing concentrations of unlabeled test molecules. Reactions were terminated by rapid vacuum filtration over 96 well-GFC […]® plates pre-coated with 0.075 mL binding buffer containing 1% BSA, and washed 3 times with 0.4 mL of Phospho-buffered Saline (pH 7.4) containing 0.01% TX-100. Filters were dried, 0.05 mL MicroScint 20 was added to each well and radioactivity was subsequently quantified by scintillation counting on a TOPCOUNT® microplate scintillation counter (Packard). Inhibitory constants were determined by nonlinear least squares analysis using a four parameter logistic equation.

## CCS(=O)(=O)C[C@@H](O)COc1ccc(N2CCC(Oc3ccc(-c4ccccc4)cc3)C2=O)cc1OC (stereo partly drawn) [Example 49, 3-(Biphenyl-4-yloxy)-1-(4-((S)-3-(ethylsulfonyl)-2-hydroxypropoxy)-3-methoxyphenyl)pyrrolidin-2-one]
  Ki: 6 nM
